Screening results from PubChem BioAssay.
E-sel inducer – E-selectin induction on HUVECs; P16581; activation, % at 7.58 µM; HUVEC E-selectin immunofluorescence imaging; normalized: neutral wells 0, TNF-alpha wells 100; 260,000 compounds, 0.37% hits;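 active = mean E-selectin-positive cell signal at least 10% of the positive control, reached in at least 60% of replicates, without over 20% cell loss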
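Material: HUVEC primary endothelial cells; Amount: 3,000 cells per well; Dosing: single concentration; Medium: EGM-2 growth medium on 0.1% gelatin-coated wells; Read-out basis: percent E-selectin-positive cells; Signal: immunofluorescence imaging; Control set: TNF-alpha, DMSO.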
PglD inh – inhibitors of Campylobacter jejuni PglD acetyltransferase; purified PglD enzyme, DTNB colorimetric CoA detection; inhibition, % at 12.5 µM; AID 602405; 360,000 compounds, 0.098% hits; in the data active = inhibition above about 16%, passing the limit was not always enough
Statin myotox sup – suppression of simvastatin myotoxicity; C2C12 myotubes + simvastatin, ATP luminescence, 48 h; scaled: DMSO 0, geranylgeraniol control 100; rescue of ATP level, % at 7.49 µM; 330,000 compounds, 0.78% hits;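 active = mean ATP rescue above about 67%, or every replicate alone reaching that limit, limit read from the data, passing the limit was not always enough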;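 also: myotubes were challenged with 10 µM simvastatin during compound exposure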
PGC1a acetyl inh – PGC1a acetylation modulation, inhibitor mode. U2OS PGC1a acetylation, AlphaScreen anti-acetyl-lysine; with virally co-expressed GCN5 acetyltransferase. inhibition, % at 15.6 µM. 350,000 compounds, 0.17% hits;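 active = every replicate shows inhibition of at least 40%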;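 also: 0% = neutral control wells and 100% = positive control wells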
UUG fidelity – alters start codon recognition fidelity in yeast; AID 602363; activity score, % at 18.7 µM; 350,000 tested, 0.13% active; S. cerevisiae UUG-firefly luciferase reporter, luminescence/redox ratio;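 active means replicate mean at a twofold rise or more, about +100% in these data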;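 further: firefly luciferase made from a UUG start codon reports start codon fidelity; reporter light over untreated wells divided by growth signal over untreated wells; some hits fall short of that in this replicate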
esBAF inh – inhibitors of esBAF chromatin remodeling in mouse ES cells | Bmi1-luciferase knock-in reporter, 24 h; 100% = twice the neutral-well signal | reporter increase, % at 12.5 µM | 350,000 compounds, 2% hits; in the data active = activation above about 40%;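 also: 0% = median of the plate's neutral control wells and 100% = double that signal; a rise in the Bmi1 reporter signal indicates esBAF inhibition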
Numbers without * were called inactive; nt = not tested or not shown. This is a sample that favours compounds with a hit; in the whole collection about 2.8% have one here.

| # | Structure | E-sel inducer | PglD inh | Statin myotox sup |
| --- | --- | --- | --- | --- |
| 1 | C[C@H]1CN([C@@H](C)CO)C(=O)c2cc(NC(=O)CCCCCC(=O)Nc3ccccc3N)ccc2O[C@H]1CN(C)C(=O)Nc1ccc(C(F)(F)F)cc1 | 0 | 0 | 41 |
| 2 | C[C@H]1CN([C@@H](C)CO)C(=O)Cc2cc(NC(=O)CCCCCC(=O)Nc3ccccc3N)ccc2O[C@@H]1CN(C)C(=O)Nc1ccc2c(c1)OCO2 | 6 | 0 | 18 |
| 3 | COc1ccc(NC(=O)N(C)C[C@@H]2Oc3ccc(NC(=O)CCCCCC(=O)Nc4ccccc4N)cc3CC(=O)N([C@@H](C)CO)C[C@@H]2C)cc1 | -6 | -3 | 7 |
| 4 | C[C@H](CO)N1C[C@H](C)[C@@H](CN(C)C(=O)Nc2ccc3c(c2)OCO3)Oc2ccc(NC(=O)CCCCCC(=O)Nc3ccccc3N)cc2CC1=O | -14 | 3 | 3 |
| 5 | C[C@@H]1CN([C@@H](C)CO)C(=O)c2cc(NC(=O)CCCCCC(=O)Nc3ccccc3N)ccc2O[C@@H]1CN(C)C(=O)Nc1ccc(C(F)(F)F)cc1 | 0 | -1 | 68* |
| 6 | COc1ccc(NC(=O)N(C)C[C@H]2Oc3ccc(NC(=O)CCCCCC(=O)Nc4ccccc4N)cc3CC(=O)N([C@@H](C)CO)C[C@H]2C)cc1 | 32* | 0 | -11 |
| 7 | C[C@H](CO)N1C[C@H](C)[C@H](CN(C)C(=O)Nc2ccc3c(c2)OCO3)Oc2ccc(NC(=O)CCCCCC(=O)Nc3ccccc3N)cc2CC1=O | 392* | 0 | 40 |
| 8 | C[C@@H]1CN([C@@H](C)CO)C(=O)Cc2cc(NC(=O)CCCCCC(=O)Nc3ccccc3N)ccc2O[C@@H]1CN(C)C(=O)Nc1ccc2c(c1)OCO2 | 181* | 0 | 5 |

| # | PGC1a acetyl inh | UUG fidelity | esBAF inh |
| --- | --- | --- | --- |
| 1 | -10 | 9 | 2 |
| 2 | 3 | 28 | 4 |
| 3 | 11 | 1 | 8 |
| 4 | -4 | 10 | 5 |
| 5 | -9 | -1 | 7 |
| 6 | 7 | 6 | 2 |
| 7 | -5 | 37 | -2 |
| 8 | 13 | 20 | -3 |

Other structures.
| # | Structure | E-sel inducer | PglD inh | Statin myotox sup |
| --- | --- | --- | --- | --- |
| 9 | CO[C@@H]1CN(C)C(=O)c2cc(NC(=O)C3CCCC3)ccc2OC[C@H](C)N(C(=O)CC2CC2)C[C@@H]1C | 0 | 1 | 11 |
| 10 | CCCC#Cc1ccc([C@@H]2[C@@H](CO)N3C(=O)CN(C(=O)Nc4cc(F)ccc4F)C[C@@H]23)cc1 | 0 | nt | nt |
| 11 | C[C@@H]1CN([C@H](C)CO)C(=O)c2cc(C#CC3CC3)cnc2O[C@H]1CN(C)C(=O)c1ccc(F)cc1 | 0 | 1 | -19 |
| 12 | C[C@@H](NC(=O)C[C@H]1CC[C@H]2[C@@H](COC[C@@H](O)CN2C)O1)c1ccccc1 | 0 | 15 | -17 |
| 13 | C[C@@H]1CN([C@H](C)CO)C(=O)c2cc(NC(=O)CCCCCC(=O)Nc3ccccc3N)ccc2O[C@@H]1CN(C)C(=O)Nc1ccc2c(c1)OCO2 | 100* | 2 | nt |
| 14 | CC(C)(C)N1C(=O)c2ccc(C(=O)Nc3nccs3)cc2C1=O | nt | 8 | -20 |
| 15 | CCN1C(=O)c2ccc(C(=O)Nc3nccs3)cc2C1=O | nt | 1 | 4 |
| 16 | O=C(Cc1ccccn1)N1CC(=O)N2[C@H](CO)[C@H](c3ccc(-c4ccc(F)cc4)cc3)[C@H]2C1 | 0 | nt | nt |

| # | PGC1a acetyl inh | UUG fidelity | esBAF inh |
| --- | --- | --- | --- |
| 9 | -1 | 11 | -1 |
| 10 | 0 | nt | nt |
| 11 | 8 | 33 | 1 |
| 12 | 8 | -14 | -2 |
| 13 | 6 | 24 | -3 |
| 14 | -2 | -15 | 54* |
| 15 | 3 | -10 | 20 |
| 16 | -9 | nt | nt |

Quoted at random: two entries already listed.
| # | Structure | E-sel inducer | PglD inh | Statin myotox sup |
| --- | --- | --- | --- | --- |
| 2 | C[C@H]1CN([C@@H](C)CO)C(=O)Cc2cc(NC(=O)CCCCCC(=O)Nc3ccccc3N)ccc2O[C@@H]1CN(C)C(=O)Nc1ccc2c(c1)OCO2 | 6 | 0 | 18 |
| 12 | C[C@@H](NC(=O)C[C@H]1CC[C@H]2[C@@H](COC[C@@H](O)CN2C)O1)c1ccccc1 | 0 | 15 | -17 |

| # | PGC1a acetyl inh | UUG fidelity | esBAF inh |
| --- | --- | --- | --- |
| 2 | 3 | 28 | 4 |
| 12 | 8 | -14 | -2 |

Remaining list, next part.
| # | Structure | E-sel inducer | PglD inh | Statin myotox sup |
| --- | --- | --- | --- | --- |
| 17 | Cc1ccc(NS(=O)(=O)c2ccc(C(=O)N3CCCN(C)CC3)cc2)cc1 | nt | -2 | nt |
| 18 | Cc1ccc(NS(=O)(=O)c2ccc(C)c(C(=O)N3CCN(C)CC3)c2)cc1 | nt | 7 | 123* |
| 19 | COC(=O)C1C(=O)c2c([nH]c(C(=O)OC3CCCC3)c2C)CC1C (configuration not stated) | nt | 1 | -55 |
| 20 | CC1CCN(C(=O)CSCc2ccc(Cl)cc2)CC1 | nt | -6 | 5 |
| 21 | CCCC#Cc1ccc2c(c1)O[C@@H](CN(C)C(=O)NC(C)C)[C@@H](C)CN([C@@H](C)CO)S2(=O)=O | 0 | 2 | 22 |
| 22 | CCCCNc1cc(NC(C)=O)cc2cc(OC)c(OC)cc12 | nt | 2 | -16 |
| 23 | COc1cc2cc(NC(C)=O)cc(NCc3ccccc3)c2cc1OC | 0 | -5 | -1 |

| # | PGC1a acetyl inh | UUG fidelity | esBAF inh |
| --- | --- | --- | --- |
| 17 | -6 | -16 | nt |
| 18 | -4 | -7 | -5 |
| 19 | -1 | -18 | 76* |
| 20 | -21 | 0 | 49* |
| 21 | -12 | 6 | -2 |
| 22 | 14 | -25 | 47* |
| 23 | nt | -2 | -4 |
